Chains of the proteins cited; added tags and fusions are not shown.
UniProt P04049, whole entry Y340E/Y341E: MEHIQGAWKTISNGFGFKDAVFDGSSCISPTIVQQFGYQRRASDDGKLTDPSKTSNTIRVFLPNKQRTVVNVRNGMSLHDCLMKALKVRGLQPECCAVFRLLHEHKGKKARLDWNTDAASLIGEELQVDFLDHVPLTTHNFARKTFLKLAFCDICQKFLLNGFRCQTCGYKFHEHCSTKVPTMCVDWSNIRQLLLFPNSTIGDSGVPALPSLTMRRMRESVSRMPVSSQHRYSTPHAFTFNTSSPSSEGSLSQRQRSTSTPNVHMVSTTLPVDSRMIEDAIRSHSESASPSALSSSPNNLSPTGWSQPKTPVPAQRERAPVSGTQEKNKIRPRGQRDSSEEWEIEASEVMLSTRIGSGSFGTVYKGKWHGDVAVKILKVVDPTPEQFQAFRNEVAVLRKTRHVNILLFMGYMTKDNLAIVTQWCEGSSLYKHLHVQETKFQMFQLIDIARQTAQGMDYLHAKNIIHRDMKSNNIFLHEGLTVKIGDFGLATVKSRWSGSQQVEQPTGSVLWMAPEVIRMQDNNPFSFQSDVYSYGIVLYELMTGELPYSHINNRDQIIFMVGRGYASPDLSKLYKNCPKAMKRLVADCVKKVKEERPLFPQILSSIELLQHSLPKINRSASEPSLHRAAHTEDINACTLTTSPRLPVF

According to patent US9694016B2 (Novartis AG, priority 2013, dated 2017):

These molecules were tested against C-Raf FL (full-length C-Raf protein, Y340E and Y341E activating mutations) (Homo sapiens (Human), UniProt P04049, Y340E/Y341E). Conditions: AlphaScreen, 60 min pre-incubation, 1 hour reaction; read-out: c-Raf FL IC-50.
Format: biochemical

IC50 [nM]	Structure (SMILES)
0.9	Cc1ccc(C(=O)Nc2cccc(C(C)C)c2)cc1-c1cc(N2CCOCC2)c(=O)n(C)c1 [Example 436, N-(3-isopropylphenyl)-4-methyl-3-(1-methyl-5-morpholino-6-oxo-1,6-dihydropyridin-3-yl)benzamide]
5.7	Cc1nc(-c2cccc(NC(=O)c3ccc(C)c(-c4cc(N5CCOCC5)c(=O)n(C)c4)c3)c2)no1 [Example 438, 4-methyl-N-(3-(5-methyl-1,2,4-oxadiazol-3-yl)phenyl)-3-(1-methyl-5-morpholino-6-oxo-1,6-dihydropyridin-3-yl)benzamide]
2.7	Cc1ccc(C(=O)Nc2cccc(C(C)(C)O)c2)cc1-c1cc(N2CCOCC2)c(=O)n(C)c1 [Example 439, N-(3-(2-hydroxypropan-2-yl)phenyl)-4-methyl-3-(1-methyl-5-morpholino-6-oxo-1,6-dihydropyridin-3-yl)benzamide]
22.5	COc1cccc(NC(=O)c2ccc(C)c(-c3cc(N4CCOCC4)c(=O)n(C)c3)c2)c1 [Example 440, N-(3-methoxyphenyl)-4-methyl-3-(1-methyl-5-morpholino-6-oxo-1,6-dihydropyridin-3-yl)benzamide]
9.3	Cc1ccc(C(=O)Nc2cccc(OC(F)(F)F)c2)cc1-c1cc(N2CCOCC2)c(=O)n(C)c1 [Example 441, 4-methyl-3-(1-methyl-5-morpholino-6-oxo-1,6-dihydropyridin-3-yl)-N-(3-(trifluoromethoxy)phenyl)benzamide]
20.2	COc1cncc(NC(=O)c2ccc(C)c(-c3cc(N4CCOCC4)c(=O)n(C)c3)c2)c1 [Example 442, N-(5-methoxypyridin-3-yl)-4-methyl-3-(1-methyl-5-morpholino-6-oxo-1,6-dihydropyridin-3-yl)benzamide]
1.7	Cc1ncc(C(=O)Nc2cccc(C(F)(F)F)c2)cc1-c1cc(N2CCOCC2)c(=O)n(C)c1 [Example 443, 1′,2-dimethyl-5′-morpholino-6′-oxo-N-(3-(trifluoromethyl)phenyl)-1′,6′-dihydro-[3,3′-bipyridine]-5-carboxamide]
14.6	Cc1ncc(C(=O)Nc2cccc(C(C)(C)C#N)c2)cc1-c1cc(N2CCOCC2)c(=O)n(C)c1 [Example 444, N-(3-(2-cyanopropan-2-yl)phenyl)-1′,2-dimethyl-5′-morpholino-6′-oxo-1′,6′-dihydro-[3,3′-bipyridine]-5-carboxamide]
5.7	Cc1ncc(C(=O)Nc2cccc(C(F)F)c2)cc1-c1cc(N2CCOCC2)c(=O)n(C)c1 [Example 445, N-(3-(difluoromethyl)phenyl)-1′,2-dimethyl-5′-morpholino-6′-oxo-1′,6′-dihydro-[3,3′-bipyridine]-5-carboxamide]
29.1	Cc1ncc(C(=O)Nc2cccc(C(C)(C)O)c2)cc1-c1cc(N2CCOCC2)c(=O)n(C)c1 [Example 446, N-(3-(2-hydroxypropan-2-yl)phenyl)-1′,2-dimethyl-5′-morpholino-6′-oxo-1′,6′-dihydro-[3,3′-bipyridine]-5-carboxamide]
14.1	Cc1ccc(NC(=O)c2cccc(C(F)(F)F)c2)cc1-c1cc(N2CCOCC2=O)c(=O)n(C)c1 [Example 451, N-(4-methyl-3-(1-methyl-6-oxo-5-(3-oxomorpholino)-1,6-dihydropyridin-3-yl)phenyl)-3-(trifluoromethyl)benzamide]
1.1	CCN(C)c1cc(C(=O)Nc2ccc(C)c(-c3cc(N4CCOCC4)c(=O)n(C)c3)c2)ccn1 [Example 453, 2-(ethyl(methyl)amino)-N-(4-methyl-3-(1-methyl-5-morpholino-6-oxo-1,6-dihydropyridin-3-yl)phenyl)isonicotinamide]

Same assay, conditions: Table 2; AlphaScreen, 1 hour reaction; read-out: c-Raf FL IC-50

IC50 [nM]	Structure (SMILES)
1.3	Cn1cc(-c2cc(NC(=O)c3ccnc(C(C)(F)F)c3)cnc2Cl)cc(N2CCOCC2)c1=O [Example 405, N-(2-chloro-1′-methyl-5′-morpholino-6′-oxo-1′,6′-dihydro-[3,3-bipyridin]-5-yl)-2-(1,1-difluoroethyl)isonicotinamide]
0.5	Cn1cc(-c2cc(NC(=O)c3cccc(C(F)(F)F)c3)cnc2Cl)cc(N2CCOCC2)c1=O [Example 407, N-(2-chloro-1′-methyl-5′-morpholino-6′-oxo-1′,6′-dihydro-[3,3-bipyridin]-5-yl)-3-(trifluoromethyl)benzamide]
2.6	COc1ccc(C(=O)Nc2cnc(Cl)c(-c3cc(N4CCOCC4)c(=O)n(C)c3)c2)cc1C(F)(F)F [Example 408, N-(2-chloro-1′-methyl-5′-morpholino-6′-oxo-1′,6′-dihydro-[3,3-bipyridin]-5-yl)-4-methoxy-3-(trifluoromethyl)benzamide]
0.2	Cn1cc(-c2cc(NC(=O)c3cccc(C(F)F)c3)ccc2Cl)cc(N2CCOCC2)c1=O [Example 412, N-(4-chloro-3-(1-methyl-5-morpholino-6-oxo-1,6-dihydropyridin-3-yl)phenyl)-3-(difluoromethyl)benzamide]
0.09	Cn1cc(-c2cc(NC(=O)c3ccnc(C(F)(F)F)c3)ccc2Cl)cc(N2CCOCC2)c1=O [Example 413, N-(4-chloro-3-(1-methyl-5-morpholino-6-oxo-1,6-dihydropyridin-3-yl)phenyl)-2-(trifluoromethyl)isonicotinamide]
0.3	Cn1cc(-c2cc(NC(=O)c3ccnc(C(C)(F)F)c3)ccc2Cl)cc(N2CCOCC2)c1=O [Example 414, N-(4-chloro-3-(1-methyl-5-morpholino-6-oxo-1,6-dihydropyridin-3-yl)phenyl)-2-(1,1-difluoroethyl)isonicotinamide]
0.6	Cn1cc(-c2cc(NC(=O)c3cccc(C(F)F)c3)ccc2F)cc(N2CCOCC2)c1=O [Example 417, 3-(difluoromethyl)-N-(4-fluoro-3-(1-methyl-5-morpholino-6-oxo-1,6-dihydropyridin-3-yl)phenyl)benzamide]
0.9	Cn1cc(-c2cc(NC(=O)c3ccnc(C(F)(F)F)c3)ccc2F)cc(N2CCOCC2)c1=O [Example 418]
1.2	Cn1cc(-c2cc(NC(=O)c3ccnc(C(C)(F)F)c3)ccc2F)cc(N2CCOCC2)c1=O [Example 419]
0.2	CC(C)c1cc(C(=O)Nc2ccc(Cl)c(-c3cc(N4CCOCC4)c(=O)n(C)c3)c2)ccn1 [Example 421, N-(4-chloro-3-(1-methyl-5-morpholino-6-oxo-1,6-dihydropyridin-3-yl)phenyl)-2-isopropylisonicotinamide]
1.9	Cn1cc(-c2cc(C(=O)Nc3cccc(C(F)(F)F)c3)cnc2Cl)cc(N2CCOCC2)c1=O [Example 423, 2-chloro-1′-methyl-5′-morpholino-6′-oxo-N-(3-(trifluoromethyl)phenyl)-1′,6′-dihydro-[3,3′-bipyridine]-5-carboxamide]
14.3	Cn1cc(-c2cc(C(=O)Nc3cccc(C(C)(C)O)c3)cnc2Cl)cc(N2CCOCC2)c1=O [Example 424, 2-chloro-N-(3-(2-hydroxypropan-2-yl)phenyl)-t-methyl-5′-morpholino-6′-oxo-1′,6′-dihydro-[3,3′-bipyridine]-5-carboxamide]
0.7	Cn1cc(-c2cc(C(=O)Nc3cccc(C(F)F)c3)ccc2Cl)cc(N2CCOCC2)c1=O [Example 426, 4-chloro-N-(3-(difluoromethyl)phenyl)-3-(1-methyl-5-morpholino-6-oxo-1,6-dihydropyridin-3-yl)benzamide]
1.2	Cn1cc(-c2cc(C(=O)Nc3cccc(C(C)(C)C#N)c3)ccc2Cl)cc(N2CCOCC2)c1=O [Example 427, 4-chloro-N-(3-(2-cyanopropan-2-yl)phenyl)-3-(1-methyl-5-morpholino-6-oxo-1,6-dihydropyridin-3-yl)benzamide]
3.3	Cc1cn(-c2cc(NC(=O)c3ccc(C)c(-c4cc(N5CCOCC5)c(=O)n(C)c4)c3)cc(C(F)(F)F)c2)cn1 [Example 428, 4-methyl-N-(3-(4-methyl-1H-imidazol-1-yl)-5-(trifluoromethyl)phenyl)-3-(1-methyl-5-morpholino-6-oxo-1,6-dihydropyridin-3-yl)benzamide]
6.7	Cc1ccc(C(=O)Nc2ccccc2)cc1-c1cc(N2CCOCC2)c(=O)n(C)c1 [Example 429, 4-methyl-3-(1-methyl-5-morpholino-6-oxo-1,6-dihydropyridin-3-yl)-N-phenylbenzamide]
0.6	Cc1ccc(C(=O)Nc2cccc(C(F)F)c2)cc1-c1cc(N2CCOCC2)c(=O)n(C)c1 [Example 430, N-(3-(difluoromethyl)phenyl)-4-methyl-3-(1-methyl-5-morpholino-6-oxo-1,6-dihydropyridin-3-yl)benzamide]
1.1	Cc1ccc(C(=O)Nc2cccc(C(C)(C)C#N)c2)cc1-c1cc(N2CCOCC2)c(=O)n(C)c1 [Example 431, N-(3-(2-cyanopropan-2-yl)phenyl)-4-methyl-3-(1-methyl-5-morpholino-6-oxo-1,6-dihydropyridin-3-yl)benzamide]
23.2	Cc1ccc(C(=O)Nc2ccccn2)cc1-c1cc(N2CCOCC2)c(=O)n(C)c1 [Example 432, 4-methyl-3-(1-methyl-5-morpholino-6-oxo-1,6-dihydropyridin-3-yl)-N-(pyridin-2-yl)benzamide]
55.8	Cc1ccc(C(=O)Nc2cccnc2)cc1-c1cc(N2CCOCC2)c(=O)n(C)c1 [Example 433, 4-methyl-3-(1-methyl-5-morpholino-6-oxo-1,6-dihydropyridin-3-yl)-N-(pyridin-3-yl)benzamide]
0.7	CCc1cccc(NC(=O)c2ccc(C)c(-c3cc(N4CCOCC4)c(=O)n(C)c3)c2)c1 [Example 435, N-(3-ethylphenyl)-4-methyl-3-(1-methyl-5-morpholino-6-oxo-1,6-dihydropyridin-3-yl)benzamide]

Same assay, conditions: read-out: c-Raf FL IC-50

Structure (SMILES)	IC50 [nM]
Cc1ccc(NC(=O)c2ccnc(N(C)C)c2)cc1-c1cc(N2CCOCC2)c(=O)n(C)c1 [Example 452, 2-(dimethylamino)-N-(4-methyl-3-(1-methyl-5-morpholino-6-oxo-1,6-dihydropyridin-3-yl)phenyl)isonicotinamide]	0.5
